Holding throughout (settings): both partners purified
For assay [1], the target named is T1, Full-length PSD-95 (UniProt P78352 61-724).
T1 construct: PSD-95, residues 61-end; also called PSD-95 FL; FL PSD-95; source: expressed from the pET32m3C expression vector by a previously reported protocol; donated by Mingjie Zhang
Kind of assay: fluorescence polarisation; competition, monomeric FP assay; probe not named for Table S1; 50 mM TRIS, 100 mM NaCl, 1 mM EDTA, 1 mM DTT; Ki from IC50. On the technique in general: Fluorescence polarisation rises when a labelled molecule tumbles more slowly, as on binding a larger partner.

Sequences of proteins named here, by UniProt entry; tags and fusion partners are left off. Residues count along the entry.
UniProt P78352, 61-724: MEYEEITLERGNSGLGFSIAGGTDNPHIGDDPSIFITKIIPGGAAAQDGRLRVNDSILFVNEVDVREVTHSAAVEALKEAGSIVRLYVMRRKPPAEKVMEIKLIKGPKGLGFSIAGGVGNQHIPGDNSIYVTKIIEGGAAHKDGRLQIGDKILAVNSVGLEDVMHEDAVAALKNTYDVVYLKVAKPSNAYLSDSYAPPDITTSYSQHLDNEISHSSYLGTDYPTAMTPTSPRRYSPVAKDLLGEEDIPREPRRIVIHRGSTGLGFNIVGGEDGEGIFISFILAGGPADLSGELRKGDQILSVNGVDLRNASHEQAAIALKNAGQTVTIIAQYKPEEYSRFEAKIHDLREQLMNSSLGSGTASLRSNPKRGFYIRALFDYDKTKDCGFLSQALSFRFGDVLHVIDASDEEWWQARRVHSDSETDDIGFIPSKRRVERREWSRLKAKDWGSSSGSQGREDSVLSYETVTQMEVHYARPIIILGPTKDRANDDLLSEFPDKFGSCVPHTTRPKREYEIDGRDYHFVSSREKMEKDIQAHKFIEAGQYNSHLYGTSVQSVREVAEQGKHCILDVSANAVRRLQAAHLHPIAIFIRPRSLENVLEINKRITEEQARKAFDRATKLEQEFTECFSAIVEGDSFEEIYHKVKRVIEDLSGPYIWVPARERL
UniProt P78352, 61-401: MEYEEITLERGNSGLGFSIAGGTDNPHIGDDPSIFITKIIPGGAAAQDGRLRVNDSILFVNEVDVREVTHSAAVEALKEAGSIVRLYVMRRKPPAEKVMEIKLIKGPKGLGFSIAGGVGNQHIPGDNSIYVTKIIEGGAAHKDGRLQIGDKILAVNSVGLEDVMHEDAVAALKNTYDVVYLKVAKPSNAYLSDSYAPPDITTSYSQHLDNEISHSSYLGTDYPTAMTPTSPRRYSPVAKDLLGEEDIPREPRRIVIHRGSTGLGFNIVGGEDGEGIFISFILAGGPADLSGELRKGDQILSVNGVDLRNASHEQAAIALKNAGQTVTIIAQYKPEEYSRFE
UniProt Q15700, 94-509: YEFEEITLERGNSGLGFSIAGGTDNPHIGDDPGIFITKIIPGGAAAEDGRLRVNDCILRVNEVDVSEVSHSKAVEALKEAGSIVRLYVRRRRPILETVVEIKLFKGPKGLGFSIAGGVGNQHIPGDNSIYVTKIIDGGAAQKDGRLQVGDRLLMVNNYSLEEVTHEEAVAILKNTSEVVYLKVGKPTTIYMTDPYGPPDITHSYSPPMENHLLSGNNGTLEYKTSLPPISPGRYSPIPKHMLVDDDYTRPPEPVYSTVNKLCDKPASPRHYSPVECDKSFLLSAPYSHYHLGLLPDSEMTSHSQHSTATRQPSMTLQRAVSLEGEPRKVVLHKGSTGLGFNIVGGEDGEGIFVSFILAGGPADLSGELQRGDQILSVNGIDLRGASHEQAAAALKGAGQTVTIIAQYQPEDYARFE
UniProt Q12959, 220-554: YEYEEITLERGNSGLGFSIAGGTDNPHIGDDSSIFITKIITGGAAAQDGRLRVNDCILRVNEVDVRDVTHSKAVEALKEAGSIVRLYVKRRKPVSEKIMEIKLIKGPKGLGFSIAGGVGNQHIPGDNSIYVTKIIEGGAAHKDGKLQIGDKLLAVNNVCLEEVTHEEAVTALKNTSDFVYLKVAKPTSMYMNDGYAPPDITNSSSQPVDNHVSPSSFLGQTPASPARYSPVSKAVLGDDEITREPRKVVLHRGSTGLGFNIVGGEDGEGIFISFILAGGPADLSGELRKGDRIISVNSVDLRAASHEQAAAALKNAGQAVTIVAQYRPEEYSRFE

Assay [2] concerns the target T2, PSD-95 PDZ1-2-3 (human, UniProt P78352 61-401).
T2 construct: human PSD-95, residues 61-401; Synthetic DNA in a modified pRSET vector; source: E. coli BL21(DE3)pLysS, purified (His-Trap IMAC, MonoQ ion exchange)
Kind of assay: fluorescence polarisation; competition against the monomeric CRIPT probe; 50 mM TRIS, 100 mM NaCl, 1 mM EDTA, 1 mM DTT; Ki calculated according to Nikolovska-Coleska et al.

Assay [3] has as its target T1, Full-length PSD-95. Described as above.
For assay [4], the target named is T3, PSD-93 PDZ1-2-3 (human, UniProt Q15700 94-509).
T3 construct: human PSD-93, residues 94-509; Synthetic DNA in a modified pRSET vector; source: E. coli BL21(DE3)pLysS, purified (His-Trap IMAC, MonoQ ion exchange)
The assay is described as above.

Assay [5] deals with T4, SAP-102 PDZ1-2-3 (human, UniProt Q92796 127-475).
T4 construct: human SAP-102, residues 127-475; Synthetic DNA in a modified pRSET vector; source: E. coli BL21(DE3)pLysS, purified (His-Trap IMAC, MonoQ ion exchange)
T4 sequence (looked up): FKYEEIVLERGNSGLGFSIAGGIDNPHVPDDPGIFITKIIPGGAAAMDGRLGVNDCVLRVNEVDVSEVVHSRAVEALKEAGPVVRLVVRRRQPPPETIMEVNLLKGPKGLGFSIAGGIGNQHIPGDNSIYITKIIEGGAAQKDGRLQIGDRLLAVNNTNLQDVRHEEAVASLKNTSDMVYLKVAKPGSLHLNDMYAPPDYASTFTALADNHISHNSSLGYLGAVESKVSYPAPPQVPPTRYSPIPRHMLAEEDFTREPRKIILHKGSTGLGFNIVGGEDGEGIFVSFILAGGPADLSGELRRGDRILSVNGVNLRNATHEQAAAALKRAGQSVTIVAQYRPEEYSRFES
The description is as above.

Assay [6] addresses T2, PSD-95 PDZ1-2-3. In words: fluorescence polarisation; saturation binding of a monomeric fluorescent probe with varying protein; 50 mM TRIS, 100 mM NaCl, 1 mM EDTA, 1 mM DTT.
In assay [7] the target is T3, PSD-93 PDZ1-2-3. The description is as above.
The target of a further assay is T5, SAP-97 PDZ1-2-3 (human, UniProt Q12959 220-554).
T5 construct: human SAP-97, residues 220-554; Synthetic DNA in a modified pRSET vector; source: E. coli BL21(DE3)pLysS, purified (His-Trap IMAC, MonoQ ion exchange)
The description is as above.

Assay [8] has as its target T4, SAP-102 PDZ1-2-3. Described as above.

The term Ki denotes the equilibrium dissociation constant of an inhibitor or competing ligand from its target. In the assay with Full-length PSD-95 [1], LDTKNYKQTSV (source: synthetic peptide) [CRIPT-11] yielded an inhibition constant Ki of 4600 nM.

B1: CRIPT-09 (peptide)
peptide: TKNYKQTSV
notes: C-terminal peptide of CRIPT; source: synthetic peptide
Molecule B1 showed a Ki with Full-length PSD-95 [1] of 3100 nM.

B2: CRIPT-07 (peptide)
peptide: NYKQTSV
notes: as for B1
B2 came in with a Ki in the assay with Full-length PSD-95 [1] of 3700 nM.

B3: CRIPT-08 (peptide)
peptide: KNYKQTSV
notes: as for B1
Consider B3, for which, in the assay with Full-length PSD-95 [1], the inhibition constant Ki amounted to 2100 nM.

B4: CRIPT-05 (peptide)
peptide: KQTSV
notes: C-terminal pentapeptide of CRIPT; source: synthetic peptide
In the assay with Full-length PSD-95 [1], B4 showed a Ki of 24000 nM.

B5: CRIPT-06 (1) (peptide)
peptide: YKQTSV
notes: C-terminal hexapeptide of CRIPT; also called CRIPT hexapeptide; YKQTSV; source: synthetic peptide
Take B5: the Ki with Full-length PSD-95 [1] is 1500 nM; with PSD-95 PDZ1-2-3 [2] it was 2700 nM; with Full-length PSD-95 [3], 4900 nM; in the assay with PSD-93 PDZ1-2-3 [4] it was 930 nM; in the assay with SAP-102 PDZ1-2-3 [5], 260 nM.

Broadly, the Kd is the equilibrium constant for the complex coming apart. As for YKQTSV (fluorescent label, not named) [Monomeric CRIPT probe], the Kd is 2100 nM with PSD-95 PDZ1-2-3 [6], 830 nM with PSD-93 PDZ1-2-3 [7], 1600 nM with SAP-97 PDZ1-2-3 and 590 nM in the assay with SAP-102 PDZ1-2-3 [8].

Source of the values: publication PMC4319893 (PLoS ONE, 2015).
